The record followed here is US8530470B2, “Chromenone derivatives” (Astrazeneca AB, priority 2011, dated 2013).

Sequences of proteins named here, by UniProt entry; tags and fusion partners are left off. A change or cut given only in a name is not applied to a line headed by its entry.
UniProt O00329: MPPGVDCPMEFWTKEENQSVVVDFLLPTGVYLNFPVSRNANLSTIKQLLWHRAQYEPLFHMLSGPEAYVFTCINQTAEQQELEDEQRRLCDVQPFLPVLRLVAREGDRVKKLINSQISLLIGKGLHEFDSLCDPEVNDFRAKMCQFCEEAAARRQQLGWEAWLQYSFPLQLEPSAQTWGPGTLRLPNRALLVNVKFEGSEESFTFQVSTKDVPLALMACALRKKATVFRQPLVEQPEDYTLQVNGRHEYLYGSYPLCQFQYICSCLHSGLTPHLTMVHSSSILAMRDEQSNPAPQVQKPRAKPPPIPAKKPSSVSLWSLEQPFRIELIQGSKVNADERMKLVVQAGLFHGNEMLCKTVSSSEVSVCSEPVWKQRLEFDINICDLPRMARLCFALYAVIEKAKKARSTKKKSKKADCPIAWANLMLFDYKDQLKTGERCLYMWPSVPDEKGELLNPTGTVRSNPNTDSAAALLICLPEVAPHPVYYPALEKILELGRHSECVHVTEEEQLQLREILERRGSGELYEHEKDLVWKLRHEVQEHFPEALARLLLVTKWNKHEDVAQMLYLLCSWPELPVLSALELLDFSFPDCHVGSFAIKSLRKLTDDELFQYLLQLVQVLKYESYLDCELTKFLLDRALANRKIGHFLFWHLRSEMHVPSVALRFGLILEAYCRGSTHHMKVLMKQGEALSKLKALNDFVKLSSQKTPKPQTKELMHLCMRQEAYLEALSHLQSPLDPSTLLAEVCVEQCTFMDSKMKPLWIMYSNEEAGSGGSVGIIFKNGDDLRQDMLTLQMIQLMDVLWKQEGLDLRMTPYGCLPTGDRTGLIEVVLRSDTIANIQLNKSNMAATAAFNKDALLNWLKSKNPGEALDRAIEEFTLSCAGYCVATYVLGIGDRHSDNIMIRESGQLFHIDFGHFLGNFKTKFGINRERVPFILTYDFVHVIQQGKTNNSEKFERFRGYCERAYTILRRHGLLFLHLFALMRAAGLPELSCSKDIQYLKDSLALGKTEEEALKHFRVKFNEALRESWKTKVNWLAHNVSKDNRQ
UniProt P42338: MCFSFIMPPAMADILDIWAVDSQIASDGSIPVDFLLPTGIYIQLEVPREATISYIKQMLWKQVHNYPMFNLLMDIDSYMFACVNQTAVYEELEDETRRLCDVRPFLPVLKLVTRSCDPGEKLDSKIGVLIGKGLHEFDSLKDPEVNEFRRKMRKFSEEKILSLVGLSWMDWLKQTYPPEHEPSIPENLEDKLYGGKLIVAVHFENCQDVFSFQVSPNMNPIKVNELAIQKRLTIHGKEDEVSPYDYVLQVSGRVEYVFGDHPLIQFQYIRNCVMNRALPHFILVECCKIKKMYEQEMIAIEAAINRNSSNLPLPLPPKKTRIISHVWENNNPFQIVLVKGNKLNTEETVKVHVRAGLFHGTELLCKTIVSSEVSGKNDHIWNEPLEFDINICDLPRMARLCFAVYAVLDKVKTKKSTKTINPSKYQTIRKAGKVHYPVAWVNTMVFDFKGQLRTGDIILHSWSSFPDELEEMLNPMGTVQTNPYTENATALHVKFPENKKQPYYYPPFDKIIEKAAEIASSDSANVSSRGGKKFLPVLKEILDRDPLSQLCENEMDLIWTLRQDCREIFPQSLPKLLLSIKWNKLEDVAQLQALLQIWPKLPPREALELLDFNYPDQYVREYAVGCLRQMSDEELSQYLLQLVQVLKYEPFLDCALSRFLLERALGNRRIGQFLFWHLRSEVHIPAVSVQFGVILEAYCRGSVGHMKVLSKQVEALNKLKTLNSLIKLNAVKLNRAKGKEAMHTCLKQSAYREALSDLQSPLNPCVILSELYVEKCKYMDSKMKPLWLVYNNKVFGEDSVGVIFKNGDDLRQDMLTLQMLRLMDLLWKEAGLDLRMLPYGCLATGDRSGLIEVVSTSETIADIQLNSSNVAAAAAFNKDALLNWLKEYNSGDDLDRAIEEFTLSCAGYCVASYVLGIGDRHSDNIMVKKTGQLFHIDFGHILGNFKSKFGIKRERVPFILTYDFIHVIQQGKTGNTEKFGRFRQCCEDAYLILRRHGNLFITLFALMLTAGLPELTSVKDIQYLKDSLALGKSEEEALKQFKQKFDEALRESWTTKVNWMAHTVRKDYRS

Usually IC50 stands for the concentration that inhibits the measured activity by half. Read a low IC50 as greater potency.

In experiment [1] the target is PI3Kδ (Homo sapiens, UniProt O00329). Briefly: In vitro enzyme inhibition assay (Kinase Glo), PI3Kδ. It counts as biochemical. As for the experimental part: (§1) (a) In Vitro Enzyme Inhibition Assay
(§2) The inhibition of PI3Kβ, PI3Kα, PI3Kγ and PI3Kδ was evaluated in a Kinase Glo based enzyme activity assay using human recombinant enzymes. The assay measures depletion of ATP after incubation with enzyme, PIP2 and ATP plus compound. ATP at the end of the reaction is detected by addition of Kinase Glo reagent, in this the Ultra Glo™ luciferase (Promega) uses the ATP as a substrate to catalyze the mono-oxygenation of luciferin and the generation of light. A direct relationship exists between the luminescence measured with the Kinase-Glo Plus Reagent and the amount of ATP remaining in a completed kinase reaction and luminescence is inversely related to kinase activity. Twelve different compound concentrations were tested and raw data from the inhibition of PI3Kβ, PI3Kα, PI3Kγ and PI3Kδ was plotted versus inhibitor concentration.
(§3) Compounds in 100% DMSO were added to assay plates by acoustic dispensing. PI3β was added in a Tris buffer (50 mM Tris pH7.4, 0.05% CHAPS, 2.1 mM DTT, and 10 mM MgCl2) and allowed to preincubate with compound for 20 min prior to addition of substrate solution containing PIP2 and ATP. The enzyme reaction was stopped after 80 min by the addition of Kinase Glo detection solution. […]
(§4) IC50 values were calculated using a log curve fitting to a non-linear regression package, fitting raw data to inhibitor concentration.
On the technique in general: In Kinase-Glo more light means more ATP remaining.

Experiment [2] deals with PI3Kβ (Homo sapiens, UniProt P42338). Briefly: In vitro enzyme inhibition assay (Kinase Glo), PI3Kβ. It counts as biochemical. As for the experimental part: as §1, §2, §3, §4

`CN(C)C(=O)c1cc(C2CCCN2c2ccccc2)c2oc(N3CCOCC3)cc(=O)c2c1` (centres unmarked) [Example 2.03, N,N-dimethyl-2-morpholino-4-oxo-8-(1-phenylpyrrolidin-2-yl)-4H-chromene-6-carboxamide]: the figures for the half-maximal inhibitory concentration (IC50) in experiment [1] and in experiment [2] were 14 nM and 13 nM, respectively.
